A short description of data set [1]: physchem.
Data set [2] is described as follows: LogP of fragrance raw materials. As to conditions: Example 2, fragrances for thermo boost performance; head range 0.00 a 3.00.

Each structure is given as a SMILES string.

Turning to `CCCCCC(=O)OCC` [ETHYL CAPROATE], the logP in data set [1] worked out at 2.83. As to `CCCC1CCCC(=O)O1` (centres unmarked) [OCTALACTONE DELTA], the logP in data set [2] came out at 1.59.

For the origin of these results see patent US20220183937A1, “METHOD FOR IMPROVING THE PERFORMANCE OF A FRAGRANCE OR A FRAGRANCE MIXTURE” (SYMRISE AG, priority 2019, published 2022).
